# Assay results taken from patent US20220151962A1, “NOVEL INHIBITORS OF HISTONE DEACETYLASE 10” (Deutsches Krebsforschungszentrum, priority 2019, published 2022).
# By UniProt entry, the sequences of proteins in these tests, tags left out. Where a name states a change or a piece, a line headed by the entry shows the natural chain unless it says otherwise.
# UniProt O15379: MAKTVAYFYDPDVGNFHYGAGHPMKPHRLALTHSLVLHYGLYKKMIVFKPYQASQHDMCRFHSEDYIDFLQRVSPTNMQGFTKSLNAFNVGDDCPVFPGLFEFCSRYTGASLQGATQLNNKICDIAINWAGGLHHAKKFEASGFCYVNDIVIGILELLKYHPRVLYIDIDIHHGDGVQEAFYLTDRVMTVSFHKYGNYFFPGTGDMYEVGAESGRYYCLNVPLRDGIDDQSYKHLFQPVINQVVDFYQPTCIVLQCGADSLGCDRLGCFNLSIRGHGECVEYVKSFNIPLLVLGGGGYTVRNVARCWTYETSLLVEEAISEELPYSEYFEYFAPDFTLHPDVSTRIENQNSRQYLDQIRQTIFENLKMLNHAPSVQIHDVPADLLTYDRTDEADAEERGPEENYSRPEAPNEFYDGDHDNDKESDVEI
# How the values were obtained:
# TwinStrep-GST-HDAC10 = target: T1, TwinStrep-GST-HDAC10 (Homo sapiens, UniProt Q969S8); assay: HDAC10 TR-FRET assay (Tubastatin-AF647-Tracer displacement); assay type: binding; conditions: 60 min at rt, read-out: pIC50 HDAC10 FRET (converted)
# T1 construct: made in house; host or cells: Sf21 insect cells (baculovirus, pFastBac1)
# T1 sequence (Q969S8 1-669): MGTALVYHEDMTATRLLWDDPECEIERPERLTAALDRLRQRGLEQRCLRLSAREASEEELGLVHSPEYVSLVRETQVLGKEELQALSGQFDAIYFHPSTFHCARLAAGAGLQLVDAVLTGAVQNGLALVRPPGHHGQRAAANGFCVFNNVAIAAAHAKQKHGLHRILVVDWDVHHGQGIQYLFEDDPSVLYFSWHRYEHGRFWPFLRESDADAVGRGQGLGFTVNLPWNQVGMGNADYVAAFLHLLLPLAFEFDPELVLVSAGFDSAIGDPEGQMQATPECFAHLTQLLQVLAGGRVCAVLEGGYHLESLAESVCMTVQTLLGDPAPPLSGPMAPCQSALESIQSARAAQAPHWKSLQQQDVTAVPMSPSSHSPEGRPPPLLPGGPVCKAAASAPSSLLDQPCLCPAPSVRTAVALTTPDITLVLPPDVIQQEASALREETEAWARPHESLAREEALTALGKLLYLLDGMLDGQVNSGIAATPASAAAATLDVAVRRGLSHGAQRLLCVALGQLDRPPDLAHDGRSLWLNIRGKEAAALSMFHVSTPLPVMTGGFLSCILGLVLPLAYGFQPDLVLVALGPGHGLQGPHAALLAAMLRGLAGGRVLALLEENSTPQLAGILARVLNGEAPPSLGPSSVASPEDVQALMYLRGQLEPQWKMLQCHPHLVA
# [1] = target: T2, HDAC10-nanoluciferase fusion in HeLa cells (Homo sapiens, UniProt Q969S8); assay: BRET intracellular target engagement assay, HDAC10
# T2 sequence (Q969S8 1-669): T1 sequence (Q969S8 1-669)
# HDAC3/NcoR2 complex = target: T3, HDAC3/NcoR2 complex (Homo sapiens, UniProt O15379); assay: HDAC-Glo I/II assay, HDAC3/NcoR2 complex; assay type: biochemical; conditions: recombinant human HDAC3/NcoR2 complex, read-out: pIC50 HDAC3 Glo (converted)
# T3 construct: purchased BPS Bioscience 50003
compound,measurement,setting,value
"CN(CCCC(=O)NO)CCNC(=O)c1c2ccccc2cc2ccccc12 [DKFZ-771, N-(2-((4-(Hydroxyamino)-4-oxobutyl)(methyl)amino)ethyl)anthracene-9-carboxamide]",IC50,TwinStrep-GST-HDAC10,2.51 nM
same,IC50,[1],12.6 nM
same,HDAC10/6 fold selectivity (BRET),"[1]; HDAC10 over HDAC6, from BRET",316 fold
same,IC50,HDAC3/NcoR2 complex,~25.1 µM
